The text below walks through data of article PMC7286548 (Cell chemical biology, 2020).

The target of this test is T1, PI5P4Kα (Homo sapiens, UniProt P48426).
T1 sequence (P48426 1-406): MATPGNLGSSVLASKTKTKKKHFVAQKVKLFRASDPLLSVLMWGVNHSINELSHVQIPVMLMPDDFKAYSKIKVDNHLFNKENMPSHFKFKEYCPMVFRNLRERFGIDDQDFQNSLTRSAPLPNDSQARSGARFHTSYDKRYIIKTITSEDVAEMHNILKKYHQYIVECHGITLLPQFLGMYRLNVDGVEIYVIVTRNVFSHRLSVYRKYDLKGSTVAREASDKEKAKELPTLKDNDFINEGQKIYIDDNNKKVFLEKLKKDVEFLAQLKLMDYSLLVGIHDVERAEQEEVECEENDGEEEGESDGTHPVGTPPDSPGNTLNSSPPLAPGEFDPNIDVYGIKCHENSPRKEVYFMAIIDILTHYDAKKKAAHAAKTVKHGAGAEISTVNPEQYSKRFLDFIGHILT
Briefly: ADP-Glo kinase assay. It counts as biochemical. The following applies: fixed time-point ADP-Glo, apparent IC50, 5 μM ATP. Background: ADP-Glo first removes unused ATP, then detects ADP through luciferase.

Broadly, the IC50 is the concentration needed to halve the response being measured. Turning to `CN(C)C/C=C/C(=O)Nc1ccc(C(=O)Nc2cccc(Nc3cc(-c4c[nH]c5ccccc45)ncn3)c2)cc1` [THZ-P1-2], the IC50 was determined as 190 nM.
